Patent publication US7541367B2, “3-benzoimidazolyl-pyrazolopyridines useful in treating kinase disorders” (Janssen Pharmaceutica, N.V., priority 2005, dated 2009)

Columns and labels:
Format in all cases: cell-based
A375 malignant melanoma = assay: Cell Proliferation Inhibition Assay (14C-thymidine incorporation), A375; details: Homo sapiens, A-375, A375 cells;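 note: proliferation measured by radiolabelled thymidine uptake into new DNA, counted in scintillating 96-well plates, compound-treated wells compared with DMSO-only control wells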
Description: (§1) The ability of a test compound to inhibit unregulated cell proliferation may be determined by measuring incorporation of ^14C-labelled thymidine into newly synthesized DNA within cell lines derived from carcinomas originating from several tissues. Accordingly, the effect of a test compound on proliferation of cells with a variety of phenotypes may be determined.
(§2) Carcinoma cell lines used include the HeLa cervical adenocarcinoma from the American Type Culture Collection (ATCC Cat. #CCL2), A375 malignant melanoma (ATCC Cat. #CRL-1619) and HCT-116 colon carcinoma (ATCC Cat. #CCL-247).
(§3) The carcinoma cells are trypsinized and counted. The cells (3600-8000 count) are added to each well of a 96-well CytoStar tissue culture treated scintillating microplate (Amersham #RPNQ0160) in complete medium (100 μL) and the plate is then incubated in complete medium for 24 hrs at 37° C. in an inert atmosphere containing 5% CO2.
(§4) Test compound (1 μL) in 100% DMSO is added to the plate test-wells with DMSO only added to control-wells. The plate is incubated in complete medium for a second 24 hr period at 37° C. in an atmosphere containing 5% CO2. […]
(§5) The plate contents are then discarded, the plate is washed twice with PBS (200 μL) and then PBS (200 μL) is added to each well. The plate is sealed and the degree of methyl ^14C-thymidine incorporation is quantified on a Packard Top Count.

HCT-116 colon carcinoma = assay: Cell Proliferation Inhibition Assay (14C-thymidine incorporation), HCT-116; details: Homo sapiens, HCT-116, HCT-116 cells;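 note: proliferation measured as methyl 14C-thymidine uptake into new DNA, counted in 96-well scintillating microplates, compared with DMSO-only control wells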
Description: as §1, §2, §3, §4, §5

[1] = system: HeLa cervical adenocarcinoma; assay: Cell Proliferation Inhibition Assay (14C-thymidine incorporation), HeLa; details: Homo sapiens, HeLa cells;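 note: test compound in DMSO added to cells seeded in scintillating 96-well plates, DMSO-only wells as control, uptake of methyl 14C-thymidine into new DNA counted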
Description: as §1, §2, §3, §4, §5

SMILES	IC50 (HCT-116 colon carcinoma) [nM]	also measured
OCc1cccc2[nH]c(-c3n[nH]c4ncc(-c5cncc6ccccc56)cc34)nc12 [Cpd 3, [2-(5-isoquinolin-4-yl-1H-pyrazolo[3,4-b]pyridin-3-yl)-1H-benzoimidazol-4-yl]-methanol]		IC50 (A375 malignant melanoma): 1470 nM
COC(=O)c1cccc2[nH]c(-c3n[nH]c4ncc(-c5cncc6ccccc56)cc34)nc12 [Cpd 108, 2-(5-isoquinolin-4-yl-1H-pyrazolo[3,4-b]pyridin-3-yl)-1H-benzoimidazole-4-carboxylic acid methyl ester]	8010	
COCc1cccc2[nH]c(-c3n[nH]c4ncc(-c5cnc6ccccc6c5)cc34)nc12 [Cpd 34, 3-[3-(4-methoxymethyl-1H-benzoimidazol-2-yl)-1H-pyrazolo[3,4-b]pyridin-5-yl]-quinoline]	3.2	
CNCc1cncc(-c2cnc3[nH]nc(-c4nc5cc(OC(F)(F)F)ccc5[nH]4)c3c2)c1 [Cpd 96, methyl-{5-[3-(5-trifluoromethoxy-1H-benzoimidazol-2-yl)-1H-pyrazolo[3,4-b]pyridin-5-yl]-pyridin-3-ylmethyl}-amine]		IC50 [1]: 93 nM
